The record followed here is US20090203577A1 (EXELIXIS, INC., priority 2005, published 2009).

Sequences of proteins named here, by UniProt entry; tags and fusion partners are left off. Residues count along the entry.
UniProt Q96RI1, 1-472 isoform 2: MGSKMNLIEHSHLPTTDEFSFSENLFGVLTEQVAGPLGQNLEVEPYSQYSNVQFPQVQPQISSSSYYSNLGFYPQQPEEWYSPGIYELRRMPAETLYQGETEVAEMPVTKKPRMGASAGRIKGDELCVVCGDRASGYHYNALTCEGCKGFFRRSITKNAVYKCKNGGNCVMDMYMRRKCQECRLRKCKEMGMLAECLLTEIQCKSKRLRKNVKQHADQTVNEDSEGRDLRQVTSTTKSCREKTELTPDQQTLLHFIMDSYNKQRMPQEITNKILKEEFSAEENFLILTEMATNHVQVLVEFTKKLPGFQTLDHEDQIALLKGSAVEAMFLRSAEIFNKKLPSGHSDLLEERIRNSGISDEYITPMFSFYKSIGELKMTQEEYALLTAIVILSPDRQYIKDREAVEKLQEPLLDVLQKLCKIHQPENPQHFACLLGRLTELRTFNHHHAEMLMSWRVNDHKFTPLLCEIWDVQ
UniProt P19793, whole entry partner: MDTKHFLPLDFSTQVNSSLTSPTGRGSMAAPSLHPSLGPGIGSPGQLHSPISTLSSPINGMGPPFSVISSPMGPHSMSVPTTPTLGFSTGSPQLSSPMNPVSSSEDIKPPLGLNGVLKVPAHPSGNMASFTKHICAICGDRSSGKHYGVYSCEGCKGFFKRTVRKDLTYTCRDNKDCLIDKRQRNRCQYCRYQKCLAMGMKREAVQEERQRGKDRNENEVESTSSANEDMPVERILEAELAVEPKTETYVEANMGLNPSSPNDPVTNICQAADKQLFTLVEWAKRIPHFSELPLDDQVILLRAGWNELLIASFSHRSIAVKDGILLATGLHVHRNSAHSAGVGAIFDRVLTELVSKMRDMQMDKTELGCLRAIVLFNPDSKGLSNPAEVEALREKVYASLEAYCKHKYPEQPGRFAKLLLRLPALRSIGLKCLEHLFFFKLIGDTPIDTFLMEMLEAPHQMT

Data set [1] concerns the target human farnesoid X receptor (Homo sapiens, UniProt Q96RI1). The data set can be described thus: FXR in vitro assays (farnesoid X receptor/ECREx7 co-transfection assay, TR-FRET assay), Table I. The format is cell-based. The settings on record: for EC50: read-out: EC50 μM, agonist activity, one or more of the in vitro assays; for % Efficacy: relative to maximum response of chenodeoxycholic acid (CDCA). On the technique in general: In TR-FRET formats the signal depends on donor and acceptor labels being close together.

Another data set in a line: Kinetic solubility assay. The settings on record: 500 μM assay solution in PBS, pH7.4 from DMSO stock, filtration, HPLC-UV.

Regarding `CC(C)OC(=O)C1=CN(C(=O)c2ccc(F)c(F)c2)CC(C)(C)c2c1[nH]c1ccc(O)cc21`, in data set [1], the half-maximal effective concentration (EC50) fell in the range of 0.1 to 1 µM and the “% Efficacy” value was “A (A=>100%)”.

Turning to `CC(C)OC(=O)C1=CN(C(=O)c2ccc(F)c(F)c2)CC(C)(C)c2c1[nH]c1cc(OC(=O)NCCN3CCCCC3)ccc21`, in the data set “Kinetic solubility assay”, the “Kinetic Solubility μM” value is reported as “E (E=>10 μM)”. In data set [1], the EC50 lay within 0.01 to 0.1 µM and the “% Efficacy” value was “A (A=>100%)”.

Usually EC50 stands for the midpoint of the concentration-response curve.
